Assay results: PMC7656562 (Journal of medicinal chemistry, 2019)
Values joined by “and” are separate entries in the source; they are usually repeats but may differ in a detail not shown here. Identical values can stand only once. Like-named read-outs stand apart in the source and are kept apart here.

Amino acid sequences for entries named in this document (tags omitted).
UniProt P21554, whole entry: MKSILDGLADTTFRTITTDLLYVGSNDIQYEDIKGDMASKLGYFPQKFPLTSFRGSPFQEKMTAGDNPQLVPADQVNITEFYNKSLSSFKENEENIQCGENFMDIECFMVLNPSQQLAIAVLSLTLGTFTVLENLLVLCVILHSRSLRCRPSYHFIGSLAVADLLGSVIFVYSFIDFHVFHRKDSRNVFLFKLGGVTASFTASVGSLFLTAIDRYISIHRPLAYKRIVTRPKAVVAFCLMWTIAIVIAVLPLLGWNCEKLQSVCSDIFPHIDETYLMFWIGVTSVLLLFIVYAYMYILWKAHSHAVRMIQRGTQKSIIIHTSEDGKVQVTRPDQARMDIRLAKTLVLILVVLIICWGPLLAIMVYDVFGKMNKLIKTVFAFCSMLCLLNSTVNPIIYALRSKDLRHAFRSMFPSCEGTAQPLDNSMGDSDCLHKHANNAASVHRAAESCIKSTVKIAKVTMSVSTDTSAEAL

How the values were obtained:
[1] = cited from earlier work
hCB1 [2] = target: T1, hCB1 (Homo sapiens, UniProt P21554); conditions: calcium mobilization; cited from earlier work
hCB1 [3] = target: T1, hCB1; test: cell-based
hCB1 [4] = target: T1, hCB1; test: biochemical
CYP1A2 = conditions: human
[5] = mouse, 0.3 mg/kg PO
CYP2B6 = conditions: human
CYP3A4 = conditions: human
[6] = rat, 1 mg/kg PO
hCB1 [7] = target: T1, hCB1; conditions: ratio Ki hCB2/Ki hCB1

CCNC1(C(N)=O)CCN(c2ncnc3c2nc(-c2ccccc2Cl)n3-c2ccc(Cl)cc2)CC1 [Compound 1, otenabant]
cLogP [1]: 4.4 | Ke hCB1 (hCB1 [2]): 0.2 nM

CCCN(C)C(=O)NC1CCN(c2ncnc3c2nc(-c2ccccc2Cl)n3-c2ccc(Cl)cc2)CC1 [Compound 11, 1-{1-[8-(2-Chlorophenyl)-9-(4-chlorophenyl)-9H-purin-6-yl]-piperidin-4-yl}-3-methyl-3-propylurea]
Kb (hCB1 [3]): 5 ± 3 nM

CC(C)CN(C)C(=O)NC1CCN(c2ncnc3c2nc(-c2ccccc2Cl)n3-c2ccc(Cl)cc2)CC1 [Compound 13, 1-{1-[8-(2-Chlorophenyl)-9-(4-chlorophenyl)-9H-purin-6-yl]-piperidin-4-yl}-3-methyl-3-(2-methylpropyl)urea]
Kb (hCB1 [3]): 6 ± 2 nM

COCCN(C)C(=O)NC1CCN(c2ncnc3c2nc(-c2ccccc2Cl)n3-c2ccc(Cl)cc2)CC1 [Compound 15, 1-{1-[8-(2-Chlorophenyl)-9-(4-chlorophenyl)-9H-purin-6-yl]-piperidin-4-yl}-3-(2-methoxyethyl)-3-methylurea]
Kb (hCB1 [3]): 13 ± 7 nM

O=C(NC1CCCC1)NC1CCN(c2ncnc3c2nc(-c2ccccc2Cl)n3-c2ccc(Cl)cc2)CC1 [Compound 19, 1-{1-[8-(2-Chlorophenyl)-9-(4-chlorophenyl)-9H-purin-6-yl]-piperidin-4-yl}-3-cyclopentylurea]
Kb (hCB1 [3]): 25 ± 14 nM

O=C(NCC1CCCC1)NC1CCN(c2ncnc3c2nc(-c2ccccc2Cl)n3-c2ccc(Cl)cc2)CC1 [Compound 24, 3-{1-[8-(2-Chlorophenyl)-9-(4-chlorophenyl)-9H-purin-6-yl]-piperidin-4-yl}-1-(cyclopentylmethyl)urea]
Kb (hCB1 [3]): 63 ± 37 nM

O=C(NCc1ccccc1F)NC1CCN(c2ncnc3c2nc(-c2ccccc2Cl)n3-c2ccc(Cl)cc2)CC1 [Compound 28, 3-{1-[8-(2-Chlorophenyl)-9-(4-chlorophenyl)-9H-purin-6-yl]-piperidin-4-yl}-1-[(2-fluorophenyl)methyl]urea]
Ki (hCB1 [4]): 2 nM | Kb (hCB1 [3]): 71 ± 7 nM

O=C(NCc1ccc(F)cc1)NC1CCN(c2ncnc3c2nc(-c2ccccc2Cl)n3-c2ccc(Cl)cc2)CC1 [Compound 29, 3-{1-[8-(2-Chlorophenyl)-9-(4-chlorophenyl)-9H-purin-6-yl]-piperidin-4-yl}-1-[(4-fluorophenyl)methyl]urea]
Kb (hCB1 [3]): 19 ± 6 nM

O=C(Nc1ccccc1F)NC1CCN(c2ncnc3c2nc(-c2ccccc2Cl)n3-c2ccc(Cl)cc2)CC1 [Compound 32, 3-{1-[8-(2-Chlorophenyl)-9-(4-chlorophenyl)-9H-purin-6-yl]-piperidin-4-yl}-1-(2-fluorophenyl)urea]
Kb (hCB1 [3]): 58 ± 7 nM

O=C(Nc1ccc(F)cc1F)NC1CCN(c2ncnc3c2nc(-c2ccccc2Cl)n3-c2ccc(Cl)cc2)CC1 [Compound 33, 3-{1-[8-(2-Chlorophenyl)-9-(4-chlorophenyl)-9H-purin-6-yl]-piperidin-4-yl}-1-(2,4-difluorophenyl)urea]
CYP1A2 induction (% of omeprazole) (CYP1A2): <1% | plasma Cl [5]: 0.317 mL/min/kg | time of brain max. conc. [5]: 2 h | time of liver max. conc. [5]: 2 h | CYP2B6 induction (% of phenobarbital) (CYP2B6): <10%

O=C(Nc1ccc(F)cc1)NC1CCN(c2ncnc3c2nc(-c2ccccc2Cl)n3-c2ccc(Cl)cc2)CC1 [Compound 35, 3-{1-[8-(2-Chlorophenyl)-9-(4-chlorophenyl)-9H-purin-6-yl]-piperidin-4-yl}-1-(4-fluorophenyl)urea]
Kb (hCB1 [3]): 78 ± 20 nM

O=C(Nc1ccc(OC(F)F)nc1)NC1CCN(c2ncnc3c2nc(-c2ccccc2Cl)n3-c2ccc(Cl)cc2)CC1 [Compound 38, 3-{1-[8-(2-Chlorophenyl)-9-(4-chlorophenyl)-9H-purin-6-yl]-piperidin-4-yl}-1-[6-(difluoromethoxy)pyridin-3-yl]urea]
CYP1A2 induction (% of omeprazole) (CYP1A2): <1% | CYP3A4 induction (% of rifampicin) (CYP3A4): <10% | plasma Cl [5]: 0.35 mL/min/kg | time of brain max. conc. [5]: 4 h | time of liver max. conc. [5]: 4 h | plasma Cl [6]: 0.3 mL/min/kg | time of brain max. conc. [6]: 2 h | time of liver max. conc. [6]: 4 h | Kb (hCB1 [3]): 26 ± 9 nM | CYP2B6 induction (% of phenobarbital) (CYP2B6): <10%

O=C(NC1CCN(c2ncnc3c2nc(-c2ccccc2Cl)n3-c2ccc(Cl)cc2)CC1)NS(=O)(=O)c1ccccc1F [Compound 41, 3-{1-[8-(2-Chlorophenyl)-9-(4-chlorophenyl)-9H-purin-6-yl]-piperidin-4-yl}-1-[(2-fluorobenzene)sulfonyl]urea]
Kb (hCB1 [3]): 280 ± 130 nM

O=C(NCC1CCCCC1)NC1CCN(c2ncnc3c2nc(-c2ccccc2Cl)n3-c2ccc(OC(F)F)nc2)CC1 [Compound 43, 3-{1-[8-(2-Chlorophenyl)-9-[6-(difluoromethoxy)pyridin-3-yl]-9H-purin-6-yl]piperidin-4-yl}-1-(cyclohexylmethyl)urea]
Kb (hCB1 [3]): 100 ± 30 nM

O=C(Nc1ccccc1F)NC1CCN(c2ncnc3c2nc(-c2ccccc2Cl)n3-c2ccc(C(F)(F)F)nc2)CC1 [Compound 45, 3-{1-[8-(2-Chlorophenyl)-9-[6-(trifluoromethyl)pyridin-3-yl]-9H-purin-6-yl]piperidin-4-yl}-1-(2-fluorophenyl)urea]
Kb (hCB1 [3]): 210 ± 70 nM

O=C(Nc1ccccc1F)NC1CCN(c2ncnc3c2nc(-c2ccccc2Cl)n3-c2ccc(OC(F)F)nc2)CC1 [Compound 46, 3-{1-[8-(2-Chlorophenyl)-9-[6-(difluoromethoxy)pyridin-3-yl]-9H-purin-6-yl]piperidin-4-yl}-1-(2-fluorophenyl)urea]
Kb (hCB1 [3]): 380 ± 140 nM

CC1(NC(=O)NC2CCC(F)(F)CC2)CCN(c2ncnc3c2nc(-c2ccccc2Cl)n3-c2ccc(Cl)cc2)CC1 [Compound 48, 3-{1-[8-(2-Chlorophenyl)-9-(4-chlorophenyl)-9H-purin-6-yl]-4-methylpiperidin-4-yl}-1-(4,4-difluorocyclohexyl)urea]
Selectivity Ki CB2/CB1 (hCB1 [7]): > 550 and >588

CC1(NC(=O)Nc2ccccc2F)CCN(c2ncnc3c2nc(-c2ccccc2Cl)n3-c2ccc(Cl)cc2)CC1 [Compound 50, 3-{1-[8-(2-Chlorophenyl)-9-(4-chlorophenyl)-9H-purin-6-yl]-4-methylpiperidin-4-yl}-1-(2-fluorophenyl)urea]
Selectivity Ki CB2/CB1 (hCB1 [7]): >2500

CC1(NC(=O)Nc2ccc(OC(F)F)nc2)CCN(c2ncnc3c2nc(-c2ccccc2Cl)n3-c2ccc(Cl)cc2)CC1 [Compound 52, 3-{1-[8-(2-Chlorophenyl)-9-(4-chlorophenyl)-9H-purin-6-yl]-4-methylpiperidin-4-yl}-1-[6-(difluoromethoxy)pyridin-3-yl]urea]
Selectivity Ki CB2/CB1 (hCB1 [7]): >120

CC1(NC(=O)NS(=O)(=O)c2ccccc2F)CCN(c2ncnc3c2nc(-c2ccccc2Cl)n3-c2ccc(Cl)cc2)CC1 [Compound 53, 3-{1-[8-(2-Chlorophenyl)-9-(4-chlorophenyl)-9H-purin-6-yl]-4-methylpiperidin-4-yl}-1-[(2-fluorobenzene)sulfonyl]urea]
Selectivity Ki CB2/CB1 (hCB1 [7]): >80
